# Laboratory results: PubChem BioAssay (NCI)
# The entries are a selection whose mix differs from that of the whole data set. Some salts or complexes appear as unconnected parts, following the source record. Where a structure was tested more than once in an assay, its records may differ in their call. Active and inactive are the calls of the source. Cut-off read from the data, not from the text of the source: active = growth inhibition above about 70%; inactive = the rest.
# Assay: NCI Yeast Anticancer Drug Screen. Data for the rad52 strain (AID 147);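 note: 0% = growth of vehicle-treated control cultures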
# Conditions: S. cerevisiae rad52 mutant growth inhibition, active compounds read high
# Protocol: Growth inhibition of yeast strains with defined genetic alterations is measured as a screen for potential anti-cancer activity. Selected strains with alterations in DNA damage repair or cell cycle control were exposed to compounds and growth inhibition was measured relative to vehicle treated controls. The strain used in this assay is rad52
Compound,growth inhibition (at 1.2 µM),growth inhibition (at 3.7 µM),growth inhibition (at 11.0 µM),growth inhibition (at 33.0 µM),growth inhibition (at 100.0 µM)
O=[N+]([O-])C(F)(COCC(O)CO)[N+](=O)[O-] (stereo not given),inactive: -13%,inactive: 22%,inactive: 7%,inactive: 63%,active: 88%
COc1ccccc1N.O=[N+]([O-])c1cc([N+](=O)[O-])cc([N+](=O)[O-])c1,inactive: -3%,inactive: 5%,inactive: 41%,active: 98%,active: 99%
Cc1ccc2ccc3ccc4ccccc4c3c2c1.O=C1c2cc([N+](=O)[O-])ccc2-c2c1cc([N+](=O)[O-])cc2[N+](=O)[O-],inactive: 2%,inactive: 4%,inactive: 10%,inactive: 16%,inactive: 22%
[Au].[C-]#N.[C-]#N,inactive: 6%,inactive: 44%,inactive: 36%,inactive: 40%,inactive: 34%
Nc1ccccc1.O=[N+]([O-])c1cc([N+](=O)[O-])cc([N+](=O)[O-])c1,inactive: 0%,inactive: 3%,inactive: 31%,active: 98%,active: 99%
Cc1cc2ccccc2cc1C.O=[N+]([O-])c1cc([N+](=O)[O-])cc([N+](=O)[O-])c1,inactive: -1%,inactive: -1%,inactive: 2%,inactive: 11%,active: 91%
